Source: PubChem BioAssay AID743255 (National Center for Advancing Translational Sciences (NCATS), 2014)
The entries are a selection whose mix differs from that of the whole data set. Records with an inconclusive call do not appear. Calls of active or inactive are those of the source. Calls follow the shape of the dose curve; as a rule, active = well fitted inhibition curve with a large enough effect; inconclusive = small, poorly fitted or top-dose-only effect; inactive = no such curve, though single readings can be large or run the other way.

By UniProt entry, the sequences of proteins in these tests, tags left out.
UniProt O94782, whole entry, looked up: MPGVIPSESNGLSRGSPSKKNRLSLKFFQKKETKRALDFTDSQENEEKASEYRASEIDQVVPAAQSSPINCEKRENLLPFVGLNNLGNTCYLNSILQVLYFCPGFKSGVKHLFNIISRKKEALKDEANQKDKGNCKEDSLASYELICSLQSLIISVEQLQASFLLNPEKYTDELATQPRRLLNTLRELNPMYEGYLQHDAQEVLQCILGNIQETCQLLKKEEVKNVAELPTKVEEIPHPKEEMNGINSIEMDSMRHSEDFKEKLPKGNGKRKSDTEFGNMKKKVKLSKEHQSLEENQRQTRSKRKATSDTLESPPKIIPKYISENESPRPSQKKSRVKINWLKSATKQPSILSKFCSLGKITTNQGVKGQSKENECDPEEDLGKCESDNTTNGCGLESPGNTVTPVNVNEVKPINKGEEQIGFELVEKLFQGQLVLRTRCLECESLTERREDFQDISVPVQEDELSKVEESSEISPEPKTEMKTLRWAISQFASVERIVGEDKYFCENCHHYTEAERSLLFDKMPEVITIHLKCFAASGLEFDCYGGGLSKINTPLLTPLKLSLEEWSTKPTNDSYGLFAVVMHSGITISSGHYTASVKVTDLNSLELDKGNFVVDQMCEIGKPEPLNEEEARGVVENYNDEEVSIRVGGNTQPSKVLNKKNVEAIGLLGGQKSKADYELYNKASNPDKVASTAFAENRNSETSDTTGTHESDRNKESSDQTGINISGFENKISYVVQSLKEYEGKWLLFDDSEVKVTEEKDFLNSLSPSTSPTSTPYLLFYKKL

Biological target: Ubiquitin carboxyl-terminal hydrolase 1 (Homo sapiens) (UniProt O94782)
Assay: Inhibitors of USP1/UAF1: Primary Screen; also: nearly all actives have a fitted effect of over 60% in size
Details: recombinant USP1/UAF1, Ub-Rhodamine cleavage fluorescence; series mostly up to 57.1 µM; activity change, negative = inhibition: at the top concentration
Excerpt: Deubiquitinating enzymes (DUBs) are a class of enzymes that can cleave isopeptide bond formed between the C-terminal carboxylate of ubiquitin and a lysine side-chain amino group on the target protein. Among them, ubiquitin specific proteases (USPs) constitute the largest DUB family. Human USPs are emerging as promising targets for pharmacological intervention because of their connection to a number of human diseases, including prostate, colon and breast cancer (1, 2), pediatric acute lymphoblastic leukemia (3), and familial cylindromatosis (4). The advantage of inhibiting USPs lies in the potential specificity of therapeutic intervention that can lead to better efficacy and reduce nonspecific side effects. In a collaboration between the University of Delaware and the NIH Chemical Genomics Center, a high-throughput screen assay was developed to screen for USP1/UAF1 inhibitors. This miniaturized assay has a fluorescent read-out and is used to screen the NIH Molecular Libraries Small Molecule Repository (MLSMR) in order to identify a small molecule that inhibits USP1. NIH Chemical Genomics Center [NCGC] NIH Molecular Libraries Probe Centers Network [MLPCN] MLPCN Grant: DA030552 Assay Submitter (PI): Zhihao Zhuang, University of Delaware 1. Priolo, C., et al. (2006) The isopeptidase USP2a protects human prostate cancer from apoptosis. Cancer Res 66, 8625-8632 2. Popov, N., et al. (2007) The ubiquitin-specific protease USP28 is required for MYC stability. Nat Cell Biol 9, 765-774 3. De Pitta, C., et al. (2005) A leukemia-enriched cDNA microarray platform identifies new transcripts with relevance to the biology of pediatric acute lymphoblastic leukemia. Haematologica 90, 890-898 4. Kovalenko, A., et al. (2003) The tumour suppressor CYLD negatively regulates NF-kappaB signalling by deubiquitination. Nature 424, 801-805
3 microliters of reagents (buffer in columns 3 and 4 as negative control and 1nM USP1/UAF1 complex in columns 1, 2, and 5-48) are dispensed into Greiner black solid bottom 1536-well assay plates. Compounds are then transferred via Kalypsys pin tool equipped with 1536-pin array (10nl slotted pins, V&P Scientific, San Diego, CA). Following an incubation step of 15 min at room temperature, 1ul of Ub-Rho substrate (150nM final concentration) is added to initiate the reaction. The plates are immediately centrifuged at 1000 rpm for 15 seconds, and subsequently transferred to a ViewLux high-throughput CCD imager (PerkinElmer) wherein kinetic measurements of fluorescence are acquired using 480 nm excitation/540 nm emission filter set (6 reads every 60 seconds, see Table 1). All reagents are diluted in an assay buffer consisting of 50mM HEPES (pH 7.8), 0.5mM EDTA, 0.1 mg/ml BSA, 1mM TCEP, and 0.01% Tween-20.
% is scaled to controls: 0 for no effect and ±100 for the full control effect; potency is read from the fitted curve at half-maximal effect.

| Structure (SMILES) | activity change, negative = inhibition | Potency |
| --- | --- | --- |
| CP(=O)(OCCOc1ccccc1)OCCOc1ccccc1 | inactive: 4.58% |  |
| CCCCCCCCCCCCCCCC1C[N+](C)(C)CCOP(C)(=O)O1 (centres undefined) | inactive: -8.72% |  |
| CP(=O)(Nc1ccc(Cl)cc1Cl)Oc1ccccc1 (centres undefined) | inactive: -2.29% |  |
| COc1ccc(OP(C)(=O)Nc2ccccc2Br)cc1 (centres undefined) | inactive: -11.1% |  |
| COc1ccccc1OP(C)(=O)Nc1ccc(C)c(C)c1 (centres undefined) | inactive: 2.03% |  |
| CCc1ccc(OP(C)(=O)O)cc1 | inactive: 1.6% |  |
| CP(=O)(Nc1ccccn1)Oc1ccccc1 (centres undefined) | inactive: 0.952% |  |
| COc1ccccc1OP(C)(=O)Nc1ccc(C)cc1C (centres undefined) | inactive: -12.5% |  |
| Cc1c(NP(C)(=O)Oc2ccc(C(C)C)cc2)c(=O)n(-c2ccccc2)n1C (centres undefined) | inactive: -18.2% |  |
| CN(C)CCOC(=O)C(O)(c1ccccc1)C1CCCC1 (centres undefined) | inactive: -22.9% |  |
| COc1ccc(OP(C)(=O)Nc2ccccn2)cc1 (centres undefined) | inactive: -14.1% |  |
| COc1ccccc1OP(C)(=O)Nc1ccc(Br)cc1 (centres undefined) | inactive: -14.7% |  |
| CN(C)C(=O)c1c([N+](=O)[O-])cc([N+](=O)[O-])cc1[N+](=O)[O-] | inactive: -23.7% |  |
| CP(=O)(Nc1ccc(Cl)cc1)Oc1ccc(F)cc1 (centres undefined) | inactive: 0.0077% |  |
| CC(C)(C)c1ccc(OP(C)(=O)O)cc1 | inactive: -0.936% |  |
| COc1ccccc1OP(C)(=O)Nc1ccccc1Br (centres undefined) | inactive: -6.45% |  |
| CP(=O)(Oc1ccccc1)N1CCOC1=O (centres undefined) | inactive: -8.48% |  |
| CCc1ccc(OP(C)(=O)Nc2cccnc2)cc1 (centres undefined) | inactive: -11.5% |  |
| COc1ccccc1OP(C)(=O)Nc1c(C)n(C)n(-c2ccccc2)c1=O (centres undefined) | inactive: -16.6% |  |
| O=C(OCCCN1CCCC1)C(O)(c1ccccc1)C1CCCCC1 (centres undefined) | inactive: 0.651% |  |
| CCN(CC)CC(O)COC(=O)C(O)(c1ccccc1)C1CCCCC1 (centres undefined) | inactive: -2.68% |  |
| COc1ccc(OP(C)(=O)Nc2ccc(Br)cc2)cc1 (centres undefined) | inactive: -20% |  |
| CP(=O)(OC12CC3CC(CC(C3)C1)C2)OC12CC3CC(CC(C3)C1)C2 | inactive: -13.8% |  |
| Nc1ccc2c(ccc3cccnc32)n1.O=[N+]([O-])c1cc([N+](=O)[O-])c(O)c([N+](=O)[O-])c1 | inactive: -23.6% |  |
| Cc1c(C(c2ccc3c(c2)OCO3)c2c(C)n(C)n(-c3ccccc3)c2=O)c(=O)n(-c2ccccc2)n1C.O=[N+]([O-])c1cc([N+](=O)[O-])c(O)c([N+](=O)[O-])c1 | inactive: -14.2% |  |

| Structure (SMILES) | activity change, negative = inhibition | Potency |
| --- | --- | --- |
| Cc1cc(-c2cccc3ccccc23)c(C)cn1.O=[N+]([O-])c1cc([N+](=O)[O-])c(O)c([N+](=O)[O-])c1 | inactive: -19.1% |  |
| O=[N+]([O-])c1ccc(OP2(=O)COCCO2)cc1 (centres undefined) | inactive: -12.9% |  |
| COc1ccc(NP(C)(=O)Oc2ccccc2OC)cc1 (centres undefined) | inactive: -5.4% |  |
| CN(C)CCOC(=O)C(O)(c1ccccc1)C1CCCCC1 (centres undefined) | inactive: 0.465% |  |
| COc1ccc(OP(C)(=O)Nc2cccc(Br)c2)cc1 (centres undefined) | inactive: -12.2% |  |
| Cc1ccccc1NP(C)(=O)Nc1ccccc1C | inactive: -17.3% |  |
| CP(=O)(Nc1ccc2c(c1)OCCO2)Oc1ccccc1 (centres undefined) | inactive: -1.28% |  |
| CCOP(C)(=S)SCC(=O)NC(C)(CC)C(=O)O (centres undefined) | inactive: -5.12% |  |
| O=C(OCCN1CCN(CCOCc2ccccc2)CC1)C(O)(c1ccccc1)c1ccccc1 | inactive: -3.81% |  |
| CC(C)c1ccc(OP(C)(=O)Nc2ccc(SC(F)(F)F)cc2)cc1 (centres undefined) | inactive: -22.7% |  |
| CP(=O)(Nc1ccccc1F)Oc1ccccc1 (centres undefined) | inactive: 9.74% |  |
| CCCCCOc1ccc(NP(C)(=O)Oc2ccc(Cl)cc2Cl)cc1 (centres undefined) | inactive: -13.7% |  |
| CP(=O)(Nc1ccccc1)Oc1ccc(F)cc1 (centres undefined) | inactive: -8.85% |  |
| CCN(CC)CCCOC(=O)C(O)(c1ccccc1)C1CCCCC1 (centres undefined) | inactive: -15.8% |  |
| CCOC(=O)c1ccc(NP(C)(=O)Oc2ccc(F)cc2)cc1 (centres undefined) | inactive: -22% |  |
| CC1=NCCc2c1[nH]c1ccccc21.O=[N+]([O-])c1cc([N+](=O)[O-])c(O)c([N+](=O)[O-])c1 | inactive: -10.2% |  |
| CP(=O)(Nc1cccc(Br)c1)Oc1ccccc1 (centres undefined) | inactive: -17.6% |  |
| Cc1cc(C)cc(OP(C)(=O)Nc2ccccn2)c1 (centres undefined) | inactive: 4.12% |  |
| Cc1ccc(C)c(NP(C)(=O)Oc2ccccc2)c1 (centres undefined) | inactive: -3.36% |  |
| Cc1cc(C)cc(OP(C)(=O)Nc2ccc(C)cc2C)c1 (centres undefined) | inactive: -5.06% |  |
| CCOC(=O)c1ccc(NP(C)(=O)Oc2cc(C)cc(C)c2)cc1 (centres undefined) | inactive: -26.4% |  |
| COc1ccccc1OP(C)(=O)Nc1cccc(Br)c1 (centres undefined) | inactive: -19.3% |  |
| Cc1nc2ccc3ccccc3c2s1.O=[N+]([O-])c1cc([N+](=O)[O-])c(O)c([N+](=O)[O-])c1 | inactive: -23.9% |  |
| O=[N+]([O-])c1cc([N+](=O)[O-])c(-c2cnn(-c3ccccc3)c2)c([N+](=O)[O-])c1 | inactive: -2.33% |  |
| O=[N+]([O-])c1cc([N+](=O)[O-])c(-n2nnc3ccccc32)c([N+](=O)[O-])c1 | inactive: -3.91% |  |

| Structure (SMILES) | activity change, negative = inhibition | Potency |
| --- | --- | --- |
| CN1CCCCC1COC(=O)C1(O)c2ccccc2CCc2ccccc21 (centres undefined) | inactive: 7.5% |  |
| COc1ccccc1OP(C)(=O)Nc1c(C)cccc1C (centres undefined) | inactive: -10.3% |  |
| O=[N+]([O-])c1cc([N+](=O)[O-])c(Nc2nnnn2CCO)c([N+](=O)[O-])c1 | inactive: -2.98% |  |
| CC1=C2N=C(C=C3N=C(C(C)=C4[N-][C@@](C)([C@@H]5N=C1[C@](C)(CCC(=O)NC[C@@H](C)OP(=O)([O-])O[C@H]1[C@@H](O)[C@@H](n6cnc7cc(C)c(C)cc76)O[C@@H]1CO)[C@H]5CC(N)=O)[C@@](C)(CC(N)=O)[C@@H]4CCC(N)=O)[C@@](C)(CC(N)=O)[C@@H]3CCC(N)=O)C(C)(C)[C@@H]2CCC(N)=O.[C-]#N.[Co+3] |  | active: 8.91 µM |
| COc1ccccc1OP(C)(=O)Nc1ccccc1 (centres undefined) | inactive: -8.99% |  |
| CP(=O)(Nc1ccccc1Br)Oc1ccccc1 (centres undefined) | inactive: -11.4% |  |
| CP(=S)(Nn1cnnc1)Oc1ccccc1 (centres undefined) | inactive: 0.3% |  |
| CP(=O)(Nc1ccccn1)Oc1ccc(Cl)cc1 (centres undefined) | inactive: -2.47% |  |
| CCOP(C)(=S)SCC(=O)NC(C)C(=O)O (centres undefined) | inactive: -13.2% |  |
| O=[N+]([O-])c1cc([N+](=O)[O-])c(O)c([N+](=O)[O-])c1.c1ccc(Oc2ccncc2)cc1 | inactive: -2.78% |  |
| CCOC(=O)c1ccc(NP(C)(=O)Oc2ccc(OC)cc2)cc1 (centres undefined) | inactive: -16.8% |  |
| CCc1ccc(OP(C)(=O)N2CCN(c3ccc([N+](=O)[O-])cc3)CC2)cc1 (centres undefined) | inactive: -13.5% |  |
| CP(=O)(NC(=O)Nc1ccccc1)Oc1ccccc1 (centres undefined) | inactive: 0.411% |  |
| CP(=O)(Oc1ccccc1)OC(c1ccccc1)C(F)(F)F (centres undefined) | inactive: -7.22% |  |
| CCN(CC)CCCOC(=O)C(O)(c1ccccc1)c1ccccc1 | inactive: 0.473% |  |
| COc1ccccc1OP(C)(=O)Nc1cc(Cl)ccc1C (centres undefined) | inactive: -16.9% |  |
| COc1ccc(OP(C)(=O)Nc2cccc(F)c2)cc1 (centres undefined) | inactive: -15% |  |
| Cc1cc(C)cc(OP(C)(N)=O)c1 (centres undefined) | inactive: -14.2% |  |
| CCOC(=O)c1ccc(NP(C)(=O)Oc2ccccc2)cc1 (centres undefined) | inactive: -16.9% |  |
| COc1ccccc1OP(C)(=O)Nc1ccc(C)cc1 (centres undefined) | inactive: -1.58% |  |
| Cc1ccc(NP(C)(=O)Oc2ccccc2)c(C)c1 (centres undefined) | inactive: -0.236% |  |
| Cc1cccc(C)c1OP(C)(N)=O (centres undefined) | inactive: -8.26% |  |
| O=[N+]([O-])c1ccc2c(c1)C=Nc1ccccc1O2 | inactive: -4.72% |  |
| O=[N+]([O-])c1cc([N+](=O)[O-])c(Nc2cccnc2)c([N+](=O)[O-])c1 | inactive: -35% |  |
